Columns and labels:
[1] = test system: MC38 colorectal carcinoma; test: Single and multi-lesion MC38 colorectal carcinoma model; assay type: in vivo, C57Bl/6 mice; conditions: KX147.AB&C 3 days then KX147.AB daily + IL-2 + anti-PD-1 + anti-TNFα; controls without KX147.AB&C
Experimental: A second cancer murine model was tested to confirm and expand upon the results obtained in Example 1 above. […] One day before KX147.AB&C combination treatment was to begin and again on Day 5, mice were administered either an anti-TNFα antibody at 100 μg or vehicle (i.p.). Then on each of Days 1-3, mice were administered KX147.AB&C combination treatment (s.c.). […] KX147.AB&C treatment comprised: A: s.c. TPI-1 at 1 mg/kg; B: s.c. PolyI:C+R848, each at 20 μg; and C: s.c. Dasatinib at 2 mg/kg. KX147.AB treatment comprised: A: s.c. TPI-1 at 1 mg/kg; and B: s.c. PolyI:C+R848, each at 20 μg. Simultaneous administration of daily IL-2 administration at 10000 IU (i.p.) and anti-PD-1 administration every three days at 100 μg (i.p.) also occurred starting on Day 1 to promote T cell immunity.

[2] = test system: MC38; test: MC38 tumors treated intratumorally with TPI-1 and T cell activating agents; assay type: in vivo, C57Bl/6 mice
Experimental: Inhibition of SHP-1 was tested in vivo for tumor therapies. In short, tumor cells (i.e., MC38) were engrafted into C57Bl/6 mice and the mice administered (i) TPI-1, (ii) αPD-1 antibody, (iii) IL-2, (iv) anti-CD3/CD28 antibodies, (v) TPI-1+αPD-1 antibody, (vi) TPI-1+IL-2, (vii) TPI-1+anti-CD3/CD28 antibodies, or (viii) TPI-1+IL-2+prophylactic anti-TNFα/anti-IL-6 antibodies. Tumor growth was measured over time until the tumors reached 2.0 cm in diameters. […] IL-2 was administered at 30,000 IU by intratumoral injection every 3 days. Anti-PD-1 antibody was 205[…] 50 μg by intratumoral injection every 3 days. Anti-CD3 antibody and anti-CD28 antibody were each 205[…] 50 μg by intratumoral injection in a single dose.

IL-2: cytokine given to promote T cell immunity
MC38 tumor burden [1]: did not display a reduction in tumor burden
effect on established tumors, such as MC38, KPC, or LLC ([2]; agent alone): only minor effects
MC38 tumor growth / resistance ([2]; intratumoral, agent without SHP-1 inhibitor, or TPI-1 alone (1 mg/kg every 2 days)): strong resistance

— patent publication US20260273047A1, “COMPOSITIONS AND METHODS FOR AMELIORATING ADVERSE EFFECTS OF THERAPIES” (MDX Management LLC, priority 2023, published 2026)
